# According to patent US12329799B2, “Peptidyl inhibitors of calcineurin-NFAT interaction” (Ohio State Innovation Foundation, priority 2018, dated 2025):
# Assay: Caco-2 permeability assay
# Conditions: human, Caco-2, pH 7.4
smiles,measurement,value
CC(C)CN(C[C@@H](O)[C@H](Cc1ccccc1)NC(=O)O[C@H]1CCOC1)S(=O)(=O)c1ccc(N)cc1 [Amprenavir],"Papp A→B at 90 min, 10 μM",15.5 ×10⁻⁶ cm/s
same,"Papp B→A at 90 min, 10 μM",49.6 ×10⁻⁶ cm/s
same,"efflux ratio at 90 min, 10 μM",3.2
